Only a part is listed here, and it is no random draw. Calls of active or inactive are those of the source.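 The calls were made as follows: active = inhibition above a per-plate cutoff, the mean of that plate's test compounds plus 3 SD (cut at about 27% in these data); inactive = the rest.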
Target: Muscarinic acetylcholine receptor M5 (Homo sapiens) (UniProt P08912)
Assay: human M5 muscarinic receptor antagonists, primary screen, CHO cells, Fluo-8 calcium fluorescence (AID 624040);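 also: 0% = acetylcholine EC80 with DMSO and 100% = DMSO without agonist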
Conditions: CHO-hM5 cells, ACh EC80, at 3 µM, stronger effect = higher value

Amino acid sequences for entries named in this document (tags omitted).
UniProt P08912, whole entry, looked up: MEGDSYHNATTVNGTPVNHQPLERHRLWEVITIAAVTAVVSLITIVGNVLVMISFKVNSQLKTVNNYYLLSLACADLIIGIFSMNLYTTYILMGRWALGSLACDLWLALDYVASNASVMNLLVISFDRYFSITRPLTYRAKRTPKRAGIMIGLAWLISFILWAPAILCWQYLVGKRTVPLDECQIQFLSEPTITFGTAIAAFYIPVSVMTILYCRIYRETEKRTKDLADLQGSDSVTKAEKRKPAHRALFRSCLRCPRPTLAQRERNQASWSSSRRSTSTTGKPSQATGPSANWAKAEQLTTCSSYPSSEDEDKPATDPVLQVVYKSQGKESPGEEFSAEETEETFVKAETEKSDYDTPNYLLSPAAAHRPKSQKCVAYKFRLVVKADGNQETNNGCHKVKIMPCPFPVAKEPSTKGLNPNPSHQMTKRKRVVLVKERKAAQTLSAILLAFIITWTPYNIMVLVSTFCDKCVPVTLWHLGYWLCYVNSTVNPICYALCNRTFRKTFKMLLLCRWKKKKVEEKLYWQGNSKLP

Compound	inhibition
CCN(CC)CCOC(=O)C(O)(c1ccccc1)c1ccccc1	active: 98.5%
Cc1ccccc1CN(C)C(=O)COC(=O)C(O)(c1ccccc1)c1ccccc1	inactive: 0.96%
C[C@@H]1C=CCP(=O)(Oc2ccccc2)O1 (stereo partly specified)	inactive: 13%
C[C@H]1OP(=O)(Oc2ccccc2)C[C@@H]2O[C@@H]21 (stereo partly specified)	inactive: 0.94%
N#C/C(=C\c1ccc(N(CCBr)CCBr)cc1)C(N)=O	inactive: 18.3%
CC(=O)c1ccc(N2CC2c2ccncc2)cc1 (stereo unspecified)	inactive: 3.29%
CC1C(=O)OC2CCN3CC=C(COC(=O)C(C)(O)C1(C)O)C23 (stereo unspecified)	inactive: 5.91%
COC(=O)C1(C)COP(=O)(NCc2ccccc2)OC1 (stereo unspecified)	inactive: 7.13%
CC(=O)Nc1ccc([As](=O)(O)O)c(O)c1	inactive: 8.27%
CC(=O)Nc1ccc(Oc2c([N+](=O)[O-])cc([N+](=O)[O-])cc2[N+](=O)[O-])cc1	inactive: 1.14%
c1ccc(-c2nn[nH]n2)c(-c2nn[nH]n2)c1	inactive: -4.73%
Cc1ccc(NP(=O)(Oc2cccc(C)c2)Oc2cccc(C)c2)nc1	inactive: -3.28%
C=C1C(=O)OC2CCN3CC=C(COC(=O)C(C)(O)C4(CO4)C1C)C23 (stereo unspecified)	inactive: 2%
O=C(NC1CCS(=O)(=O)C1)NP(=S)(Oc1ccccc1)Oc1ccccc1 (stereo unspecified)	inactive: -0.85%
CCNC(=S)/N=C(\N)N[N+](=O)[O-]	inactive: 6%
CC1C(=O)OC2CCN3CC4OC4(COC(=O)C(C)(O)C1(C)O)C23 (stereo unspecified)	inactive: 5.02%
O=P1(N(CCCl)CCCl)OCCC2CCCCN21 (stereo unspecified)	inactive: 11.7%
Clc1ccc(N2CCN(Cc3c[nH]c4ncccc34)CC2)cc1	inactive: -8.15%
CCC(=O)N1C2C3N(C(=O)CC)C1C1N(C(=O)CC)C(C(N1C(=O)CC)N3C(=O)CC)N2C(=O)CC	inactive: 5.67%
COC(=O)c1cc2c(s1)N=C(c1ccccc1)N(C)P2(=O)N1CCOCC1 (stereo unspecified)	inactive: -3.34%
Cc1ccc(OP(=O)(Nc2ccccn2)Oc2ccc(C)cc2)cc1	inactive: 8%

Compound	inhibition
CC(=O)NC(SC(=S)N(CC(C)C)CC(C)C)C(Cl)(Cl)Cl (stereo unspecified)	inactive: -5.65%
Cc1ccccc1OP(=O)(Nc1ccccn1)Oc1ccccc1C	inactive: 6.29%
CC(NC(=O)COC(=O)C(O)(c1ccccc1)c1ccccc1)c1ccccc1 (stereo unspecified)	inactive: 7.23%
CN(C)C(=O)Oc1noc2ccccc12	inactive: 7.93%
O=c1c2cc([N+](=O)[O-])ccc2[nH]c2c([N+](=O)[O-])cc([N+](=O)[O-])cc12	inactive: 7.83%
CCN(C(=O)COC(=O)C(O)(c1ccccc1)c1ccccc1)c1c(N)n(Cc2ccccc2)c(=O)[nH]c1=O	inactive: 3.24%
O=P(Nc1ccccn1)(c1ccc(Br)cc1)c1ccc(Br)cc1	inactive: -3.42%
Nc1ccc(CCCCOc2ccccc2)cc1	inactive: 1.54%
COc1ccc(N)c([N+](=O)[O-])c1[N+](=O)[O-]	inactive: 7.55%
O=P(Nc1nc2ccccc2s1)(c1ccccc1)c1ccccc1	inactive: 12.2%
C[C@H]1OP(=O)(Oc2ccccc2)[C@H](O)[C@H](O)[C@H]1N=[N+]=[N-] (stereo partly specified)	inactive: 5.56%
O=[As](O)(c1ccccc1)c1ccc(O)cc1	inactive: 13%
O=[N+]([O-])c1ncn(CCn2cnc([N+](=O)[O-])n2)n1	inactive: -10.5%
CC(=O)NC(SC(=S)N(C)C)C(Cl)(Cl)Cl (stereo unspecified)	inactive: 0.22%
O=[N+]([O-])c1ccc(O)c(/C=N/Nc2ccc([N+](=O)[O-])cc2[N+](=O)[O-])c1	inactive: -2.72%
Nc1ccc([As](=O)(O)c2ccc([N+](=O)[O-])cc2)cc1	inactive: 14%
C(Cc1nn[nH]n1)Cc1nn[nH]n1	inactive: -3.31%
O=P(Nc1nccs1)(c1ccccc1)c1ccccc1	inactive: -3.94%
CC(C)C(=O)NC(Sc1ccccc1)C(Cl)(Cl)Cl (stereo unspecified)	inactive: -11.7%
c1nnnn1CCn1cnnn1	inactive: -0.65%

From PubChem BioAssay AID624040 (The Scripps Research Institute Molecular Screening Center, 2012)
